Experimental findings from US7112654B2, “Ligand for vascular endothelial growth factor receptor” (Supratek Pharma Inc., priority 2001, dated 2006) are described below.

Experiment [1] has as its system human umbilical vein endothelial cells (HUVEC). As to conditions: 24 h.
Experiment [2] deals with B16BL6 melanoma-induced angiogenesis in C57BL/6 mice. Description: Tumor-induced angiogenesis, dorsal air sac-chamber. As to conditions: 20 mg/kg/day s.c., days 0 to 5, evaluated day 7. Format: in vivo, mouse. The method, then:
For tumor-induced angiogenesis, the dorsal air sac-chamber was carried out in female C57BL/6 mice as described else (Itoh, T et al., Cancer Res., 58: 1048–1051, 1998). Murine B16BL6 cell, a VEGF-producing melanoma, were washed three times and suspended in HBSS at a concentration of 5×10^6 cells/ml. A Millipore (Millipore Co., Redford, Mass.) was filed with 0.2 ml of either a cell suspension of HBSS and then implanted s.c. into the dorsal side of mice (day 0). Control mice were implanted with Millipore chambre along. The animals (5 mice per group) were treated s.c. with 20 mg/kg of the modified peptide (SEQ ID NO: 4) or the vehicle into 1 cm around the air sac. Treatments were performed daily from days 0 to 5.
To evaluate the antiangiogenic activity of the compounds, 7 days after tumor implantation, the animals were sacrificed and a wide rectangular incision was made in the skin of air sacs and photgraphed. The significant stimulation of angiogenesis was detected in mice implanted with B16BL6 melanoma cells. The treatment of animals with compound of this invention at dose 20 mg/kg/day inhibits tumor-induced angiogenesis to 70%.

The term IC50 denotes the concentration at which inhibition is half-maximal. Read a high IC50 as weaker potency in that assay. Regarding `CC[C@H](C)[C@H](NC(=O)[C@H](CCC(=O)O)NC(=O)[C@H](Cc1ccc(O)cc1)NC(=O)CNC(=O)[C@H](CC(N)=O)NC(=O)c1ccc2c(c1)C(=O)OC21c2ccc(O)cc2Oc2cc(O)ccc21)C(=O)N[C@@H](CCC(=O)O)C(=O)N[C@@H](Cc1c[nH]c2ccccc12)C(=O)N[C@@H](Cc1ccc(O)cc1)C(=O)N[C@@H](CO)C(=O)N[C@@H](Cc1c[nH]c2ccccc12)C(=O)N[C@H](C(=O)N[C@H](C(=O)N[C@@H](Cc1c[nH]cn1)C(=O)NCC(=O)N[C@@H](CCSC)C(=O)N[C@@H](Cc1ccc(O)cc1)C(N)=O)[C@@H](C)O)C(C)C` [SEQ ID NO: 4], in experiment [1], half-maximal inhibition (IC50) required 5 µM. In experiment [2], the “inhibition of tumor-induced angiogenesis” value is 70%.
